From PubChem BioAssay AID540281 (Sanford-Burnham Center for Chemical Genomics, 2011) come the findings set out here.

By UniProt entry, the sequences of proteins in these tests, tags left out. Where a name states a change or a piece, a line headed by the entry shows the natural chain unless it says otherwise.
UniProt Q9GZU7: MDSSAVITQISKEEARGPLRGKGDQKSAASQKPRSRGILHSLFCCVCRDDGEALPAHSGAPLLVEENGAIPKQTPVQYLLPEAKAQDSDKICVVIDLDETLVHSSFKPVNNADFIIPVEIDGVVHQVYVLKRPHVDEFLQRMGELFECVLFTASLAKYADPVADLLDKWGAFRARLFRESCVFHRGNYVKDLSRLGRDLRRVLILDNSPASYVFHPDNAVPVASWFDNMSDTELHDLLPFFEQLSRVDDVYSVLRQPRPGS

The list shows a part of the results, in another mix than the full data. Active and inactive are the calls of the source.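 Rule for the calls: active = inhibition of at least 30% at 20 µM; inactive = the rest.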

This experiment deals with Carboxy-terminal domain RNA polymerase II polypeptide A small phosphatase 1 (Homo sapiens) (UniProt Q9GZU7). In words: SCP1 dephosphorylation blockade at one dose – biochemical, colorimetric, single concentration, confirmation (AID 540281).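 Note: plate controls were DMSO with enzyme for no effect and buffer wells lacking enzyme for full effect.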 The note with it: recombinant SCP-1 catalytic domain, phosphate release, malachite green absorbance; at 20 µM; hits give high values. The method, boiled down: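 Test system: SCP-1 enzyme, residues 76-261; buffer or medium: Tris acetate pH 5.5 buffer with Mg2+ and detergent; also added: Phosphorylated 17-mer peptide as phosphatase substrate; compound dosing: single point at 20 µM, 1% DMSO; incubation: Enzyme–substrate reaction 45 min, room temperature; detection: colorimetric absorbance at 630 nm of released free orthophosphate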
The term inhibition denotes how much of the control response was suppressed. As to `Nc1cccc2ccc([As](=O)(O)O)cc12`, the inhibition was active: 45.8%.
